# Molecular target: purified human recombinant CDA (Homo sapiens (Human), UniProt P32320)
# Chains of the proteins cited; added tags and fusions are not shown. Lines headed by an entry give the natural chain unless they say otherwise; changes in a name come on top.
# UniProt P32320: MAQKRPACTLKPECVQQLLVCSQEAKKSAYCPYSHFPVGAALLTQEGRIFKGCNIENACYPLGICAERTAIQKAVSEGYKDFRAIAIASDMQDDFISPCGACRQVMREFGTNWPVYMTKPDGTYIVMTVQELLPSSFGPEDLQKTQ
# Assay: CDA enzymatic activity assay (absorbance change at 286 nm, deamination of cytidine to uridine)
# Assay type: biochemical
# Details: cytidine 50 μM, potassium phosphate buffer pH 7.4
row,Substance,IC50 [nM]
1,2′(R)-Fluoro-2′-deoxy-TetraHydroUridine [Compound 2],2000 ± 3000
2,2′(S)-fluoro-2′deoxy-tetrahydrouridine [Compound 3],2000 ± 1000
